CycPeptMPDB entries from one study

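Lipid, pH, incubation time, direction and concentration are not recorded in the data file. Other peptides of the study may be missing here. Peptides that the database sets to -10, its floor, are left out.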

PAMPA is the parallel artificial membrane permeability assay, which has no cells and reads passive diffusion.
P is given in units of 10^-6 cm/s (from log10 values with two decimals); larger means faster passage.

PAMPA (10^-6 cm/s)	structure (SMILES)
5.4	CC(C)C[C@@H]1C(=O)N(C)[C@@H](CC(C)C)C(=O)N2CCC[C@H]2C(=O)N(C)[C@@H](CC(C)C)C(=O)N[C@@H](Cc2ccccc2)C(=O)N[C@H](C)C(=O)N1C
2.2	CC(C)C[C@@H]1NC(=O)[C@H](C)N(C)C(=O)[C@@H]2CCCN2C(=O)[C@H](Cc2ccccc2)NC(=O)CN(Cc2ccccc2)C(=O)[C@@H]2CCCN2C(=O)[C@@H](CC(C)C)N(C)C1=O
9.1	CCCN1CC(=O)N(C)[C@@H](CC(C)C)C(=O)N(C)[C@H](CC(C)C)C(=O)N2CCC[C@H]2C(=O)N(C)[C@@H](CC(C)C)C(=O)N[C@@H](Cc2ccccc2)C(=O)N2CCC[C@H]2C1=O
1.4	CCCN1CC(=O)N(C)[C@@H](CC(C)C)C(=O)N[C@H](CC(C)C)C(=O)N2CCC[C@@H]2C(=O)N[C@@H](CC(C)C)C(=O)N[C@@H](Cc2ccccc2)C(=O)N2CCC[C@@H]2C1=O
4.8	CC(C)C[C@H]1C(=O)N[C@@H](Cc2ccccc2)C(=O)N2CCC[C@H]2C(=O)N[C@H](C)C(=O)N(Cc2ccccc2)CC(=O)N[C@@H](Cc2ccccc2)CC(=O)N2CCC[C@H]2C(=O)N1C
3.6	CC(C)C[C@@H]1C(=O)N2CCC[C@H]2C(=O)N(C)[C@H](CC(C)C)C(=O)N[C@@H](Cc2ccccc2)C(=O)N2CCC[C@@H]2C(=O)N(C)[C@H](C)C(=O)N(C)[C@@H](CC(C)C)C(=O)N1C
0.93	CC(C)C[C@@H]1C(=O)N[C@H](CC(C)C)C(=O)N2CCC[C@H]2C(=O)N(Cc2ccccc2)CC(=O)N[C@@H](Cc2ccccc2)C(=O)N2CCC[C@H]2C(=O)N[C@@H](C)C(=O)N1C
13	CC(C)C[C@@H]1NC(=O)[C@H](C)N(C)C(=O)[C@H](Cc2ccccc2)NC(=O)CN(Cc2ccccc2)C(=O)[C@@H]2CCCN2C(=O)[C@@H](CC(C)C)N(C)C1=O
0.049	CC(C)C[C@H]1NC(=O)[C@@H]2CCCN2C(=O)[C@H](CC(C)C)N(C)C(=O)[C@H](CC(C)C)N(C)C(=O)[C@@H](C)N(C)C(=O)[C@H]2CCCN2C(=O)[C@H](Cc2ccccc2)NC1=O
3.2	CC(C)C[C@H]1NC(=O)[C@@H]2CCCN2C(=O)[C@H](CC(C)C)N(C)C(=O)[C@@H](CC(C)C)NC(=O)C[C@H](Cc2ccccc2)NC(=O)[C@H](Cc2ccccc2)NC1=O
1.1	CC(C)C[C@@H]1NC(=O)[C@H]2CCCN2C(=O)CN(Cc2ccccc2)C(=O)[C@H](CC(C)C)NC(=O)C[C@H](Cc2ccccc2)NC(=O)[C@H](Cc2ccccc2)NC1=O
4.8	CC(C)C[C@@H]1C(=O)N[C@H](CC(C)C)C(=O)N2CCC[C@@H]2C(=O)N(C)[C@H](CC(C)C)C(=O)N[C@@H](Cc2ccccc2)C(=O)N2CCC[C@H]2C(=O)N[C@@H](Cc2ccccc2)CC(=O)N1C
6.9	CCCN1CC(=O)N(C)[C@@H](CC(C)C)C(=O)N[C@@H](CC(C)C)C(=O)N2CCC[C@@H]2C(=O)N(C)[C@H](CC(C)C)C(=O)N[C@@H](Cc2ccccc2)C(=O)N2CCC[C@H]2C1=O
6.2	CCCN1CC(=O)N[C@@H](CC(C)C)C(=O)N(C)[C@@H](CC(C)C)C(=O)N2CCC[C@@H]2C(=O)N[C@@H](CC(C)C)C(=O)N[C@@H](Cc2ccccc2)C1=O
1.5	CC(C)C[C@@H]1NC(=O)[C@H]2CCCN2C(=O)[C@H](CC(C)C)NC(=O)CN(Cc2ccccc2)C(=O)[C@@H](C)N(C)C(=O)[C@H](Cc2ccccc2)NC1=O
3.2	CC(C)C[C@@H]1NC(=O)C[C@H](Cc2ccccc2)NC(=O)[C@@H]2CCCN2C(=O)[C@H](Cc2ccccc2)NC(=O)[C@@H](CC(C)C)NC(=O)[C@H]2CCCN2C(=O)[C@@H](CC(C)C)N(C)C1=O
10	CC(C)C[C@@H]1NC(=O)[C@@H](CC(C)C)NC(=O)[C@H](C)N(C)C(=O)[C@H]2CCCN2C(=O)[C@H](Cc2ccccc2)NC(=O)[C@H](CC(C)C)N(C)C(=O)[C@H]2CCCN2C1=O
0.71	CC(C)C[C@@H]1NC(=O)[C@H]2CCCN2C(=O)[C@@H](CC(C)C)N(C)C(=O)[C@H](CC(C)C)NC(=O)[C@@H](C)NC(=O)[C@H](Cc2ccccc2)NC1=O
6.6	CC(C)C[C@@H]1NC(=O)[C@H]2CCCN2C(=O)[C@H](CC(C)C)N(C)C(=O)[C@H](CC(C)C)NC(=O)C[C@H](Cc2ccccc2)NC(=O)[C@H](Cc2ccccc2)NC1=O
2.3	CC(C)C[C@@H]1NC(=O)C[C@H](Cc2ccccc2)NC(=O)[C@@H]2CCCN2C(=O)[C@H](Cc2ccccc2)NC(=O)CN(Cc2ccccc2)C(=O)[C@H]2CCCN2C(=O)[C@@H](CC(C)C)N(C)C1=O
0.76	CC(C)C[C@@H]1NC(=O)[C@@H](C)N(C)C(=O)[C@H](Cc2ccccc2)NC(=O)[C@@H](CC(C)C)NC(=O)[C@@H]2CCCN2C(=O)[C@@H](CC(C)C)NC1=O

A selection of 3 entries from above:

structure (SMILES)	PAMPA (10^-6 cm/s)
CCCN1CC(=O)N(C)[C@@H](CC(C)C)C(=O)N(C)[C@H](CC(C)C)C(=O)N2CCC[C@H]2C(=O)N(C)[C@@H](CC(C)C)C(=O)N[C@@H](Cc2ccccc2)C(=O)N2CCC[C@H]2C1=O	9.1
CCCN1CC(=O)N(C)[C@@H](CC(C)C)C(=O)N[C@H](CC(C)C)C(=O)N2CCC[C@@H]2C(=O)N[C@@H](CC(C)C)C(=O)N[C@@H](Cc2ccccc2)C(=O)N2CCC[C@@H]2C1=O	1.4
CC(C)C[C@H]1NC(=O)[C@@H]2CCCN2C(=O)[C@H](CC(C)C)N(C)C(=O)[C@H](CC(C)C)N(C)C(=O)[C@@H](C)N(C)C(=O)[C@H]2CCCN2C(=O)[C@H](Cc2ccccc2)NC1=O	0.049

Values of Townsend et al. 2020, doi:10.26434/chemrxiv.13335941.v1, as listed in CycPeptMPDB.